Series [1] has as its system pDC. Description: pDC activation by anti-BDCA2:CpG conjugates in human PBMCs. It counts as cell-based. The method, then:
PBMCs were immediately plated onto a 96-well format (500K/well) in Complete RPMI (RPMI+10% FBS). Five-fold serial dilutions were added to the cells from 100 nM to 6.4 pM of antibody and conjugated antibody and 1 uM to 64 pM of CpG polynucleotides at 37° C. under 5% CO2 for 48 to 96 hours. Cells were pelleted by centrifugation for five minutes at 400×g and stained at 4° C. in Fixable Viability Dye eFluor 780 (Thermo Fisher Scientific) diluted 1:4000 in PBS. Cells were centrifuged and stained at 4° C. in FACS buffer for 30 minutes containing FcR Blocking Reagent (Miltenyi Biotec), anti-CD19, anti-CD20, anti-CD40, anti-HLADR and anti-CD80 for B cell assays and anti-CD14, anti-CD3, anti-CD19, anti-CD14, anti-CD123, antiCD11 c and anti-CD86 for pDC assays. Cells were centrifuged and washed twice in FACS buffer and fixed in 0.5% paraformaldehyde. COUNTBRIGHT™ Absolute Counting Beads (Thermo Fisher Scientific) were added to each well to count the number of cells. Cells were analyzed on ATTUNE™ NxT Flow Cytometer (Thermo Fisher Scientific), with subsequent data analysis by Flowjo 10.7 (Treestar). Dead cells were excluded by gating on the eFluor 780-negative population. Lineage specific cells were first excluded (CD19, CD3, CD14) prior to gating CD123^+CD11c^− cells to identify pDC and gating CD19^+, CD20^+ or CD19^+CD20^+ cells to identify B cells. […]

Series [2] deals with TLR9. Description: Activation of TLR9 positive and TLR9 negative immune cells in human PBMCs (Example 22). It counts as cell-based. Here is the method:
For biological evaluation of CpG-oligonucleotides and antibody-CpG oligonucleotide conjugates, Trima residuals were received from Vitalant and diluted 1:2 with Phosphate Buffered Saline (PBS, Gibco). Diluted blood was split into two tubes and underplayed with 15 mL FICOLL® PAQUE medium (GE Healthcare). Tubes were centrifuged for 30 minutes at 400×g. PBMCs were collected from the interface, resuspended and washed in FACS buffer (PBS with 0.5% Bovine Serum Albumin (Gibco)). After one wash, PBMCs were resuspended in Complete RPMI (RPMI+10% FBS). PBMCs were immediately plated onto a 96-well format (500K/well) in Complete RPMI. Five-fold serial dilutions were added to the cells from 1 uM to 64 pM of CpG polynucleotides or 100 nM to 6.4 pM conjugated antibody at 37° C. under 5% CO2 for 18 hours. […] Cells were analyzed on ATTUNE™ NxT Flow Cytometer (Thermo Fisher Scientific), with subsequent data analysis by FLOWJO™ 10.7 (Treestar). […] B cells were identified as CD19+CD20+ cells, T cells as CD3+CD56−, DC as CD11chiHLADR+, and monocytes as CD14+ and level of activation marker was assessed by median fluorescent intensity. • TNT138a=anti-CD22 antibody having RH2 VH domain and RL1 N92S VL domain (SEQ ID Nos:65 and 87, respectively) conjugated to compound 7.7b (7-7) CpG (SEQ ID NO:35)

B1: CpG 12070:anti-BDCA2 conjugate: "pDC targeting antibody, anti-BDCA2 (SEQ ID NOs: 111 and 112 for VH and VL sequences, respectively), was similarly conjugated with CpG 12070 (SEQ ID NO: 3)" (conjugate)
VH: DVQLVESGGGLVKPGGSLRLSCAASGFTFSTYTMSWVRQAPGKGLEWVATISPGDSFGYYYPDSVQGRFTISRDNAKNSLYLQMNSLRAEDTAVYYCTRDIYYNYGAWFAYWGQGTLVTVSS
VL: DIQLTQSPSSLSASVGDRVTITCKASQSVDYDGDSYMNWYQQKPGKAPKLLIYAASTLESGVPSRFSGSGSGTDFTLTISSLQPEDFATYYCAEDRTFGQGTKVEIK
DNA: ucgtcgtgtcgtt
modifications: transglutaminase conjugation; (1)..(13) Linkages as shown in Table 2 of the specification; (1)..(13) Modified as shown in Table 2 of the specification
With B1, the IFNα expression result in series [1] was “induced IFNα expression”.

B2: TNT138a: "anti-CD22 antibody having RH2 VH domain and RL1 N92S VL domain (SEQ ID Nos:65 and 87" conjugated to compound 7.7b CpG (conjugate)
VH: QVQLLESGGGVVQPGGSLRLSCAASGFAFSIYDMNWVRQAPGKGLEWVSAISSGGGTTYYADSVKGRFTISRDNAKNSLYLQMNSLRAEDTAVYYCARHSGYGTHWGVLFAYWGRGTLVTVSS
VL: DIQMTQSPSSLSASVGDRVTITCRASQDIHGYLNWYQQKPGKAPKLLIYYTSILHSGVPSRFSGSGSGTDFTLTISSLQPEDFATYFCQQGSTLPWTFGQGTKLEIK
modifications: conjugated to CpG 7.7b
For the molecule B2, the “activation of TLR9 negative immune cells (CD69 in T cells)” value in series [2] is “did not activate TLR9 negative immune cells”.

Values taken from US11920136B2, “Transglutaminase-mediated conjugation” (Tallac Therapeutics, Inc., priority 2020, dated 2024).
